Measured affinities in a library of Ab-91 heavy chain variants

All variants were tested on one target, the spike HR2 peptide PDVDLGDISGINAS (SARS-CoV-2).

Parent: Ab-91, a human scFv built as VL, the linker GGGGSGGGGSGGGGS, VH. Only the CDRs of the heavy chain vary.
VL: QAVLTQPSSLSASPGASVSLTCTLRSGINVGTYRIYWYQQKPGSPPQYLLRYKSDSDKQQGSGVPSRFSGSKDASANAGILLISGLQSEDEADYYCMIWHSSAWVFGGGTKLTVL
VH: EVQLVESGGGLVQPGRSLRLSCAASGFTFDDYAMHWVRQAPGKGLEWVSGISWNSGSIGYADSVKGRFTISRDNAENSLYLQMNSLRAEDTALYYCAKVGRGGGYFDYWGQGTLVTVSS

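The starting antibody came from a phage panning campaign against this peptide. The library (AAYL51) carries one to three amino acid substitutions per variant, with no insertions or deletions. In AlphaSeq, yeast of one mating type display the scFv and yeast of the other type display the target. Pairs that bind mate more often; barcode pairs of the diploids are counted by sequencing. A regression on co-assayed BCL2-family reference pairs converts the normalised counts of each replicate to an apparent Kd. There are three technical replicates.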

Positions count from residue 1 of the parent VH; M34H puts H in place of M. Scale: log10 of Kd in nM, estimated from mating counts; low values are strong binders. A mean of the replicates is given; it leaves out those without a signal. Where no diploid with the target was found in any replicate, the entry reads "nd": below detection, most likely a poor binder, though not proof of it. For reference, the parent read 1.86 as the reference entry and 0.88 as a member of this library. As a blank, each scFv also met three strains without target: over library AAYL51, 21% of these pairings were detected, typically at 4.54 and seldom below 3.26. Also given: how often the same scFv was detected with the empty control strains.

For M34H H35K W53S, the assay gave 5.29 (2 of 3 replicates; controls 4 of 9).
For I51M Y108C, the assay gave 2.69 (3 of 3 replicates; controls 5 of 9).
For G50S D62L V99A, the assay gave nd (0 of 3 replicates; controls 1 of 9).
For G26S S57M Y60S, the assay gave 2.75 (1 of 3 replicates; controls 3 of 9).
For R101S G104K Y108C, the assay gave 0.81 (3 of 3 replicates; controls 2 of 9).
For Y32A R101K Y108D, the assay gave 3.78 (2 of 3 replicates; controls 0 of 9).
For G26V H35C S63G, the assay gave 4.61 (1 of 3 replicates; controls 0 of 9).
For D31I G50R G100H, the assay gave nd (0 of 3 replicates; controls 0 of 9).
For Y32T R101D Y105K, the assay gave 3.09 (1 of 3 replicates; controls 0 of 9).
For D30N G50E G56L, the assay gave nd (0 of 3 replicates; controls 0 of 9).
For T28P G56R R101P, the assay gave 2.80 (3 of 3 replicates; controls 3 of 9).
For F29S I51E S63E, the assay gave nd (0 of 3 replicates; controls 0 of 9).
For Y32K A33E D62I, the assay gave nd (0 of 3 replicates; controls 2 of 9).
For N54G S63Q, the assay gave 2.56 (3 of 3 replicates; controls 1 of 9).
For W53A G103D D107A, the assay gave 1.57 (3 of 3 replicates; controls 1 of 9).
For H35A K65Q V99C, the assay gave nd (0 of 3 replicates; controls 1 of 9).
For G56S G59E G100M, the assay gave 5.38 (1 of 3 replicates; controls 0 of 9).
For S57D G59H G104F, the assay gave 4.71 (1 of 3 replicates; controls 4 of 9).
For S52P Y105F, the assay gave nd (0 of 3 replicates; controls 4 of 9).
For A33E M34Q W53M, the assay gave nd (0 of 3 replicates; controls 0 of 9).
For G56V V64K V99C, the assay gave nd (0 of 3 replicates; controls 2 of 9).
For K65N V99Y D107P, the assay gave 3.65 (3 of 3 replicates; controls 2 of 9).
For A33W G56I K65C, the assay gave 4.39 (2 of 3 replicates; controls 1 of 9).
For Y32N Y60Q F106Y, the assay gave 2.59 (1 of 3 replicates; controls 0 of 9).
For G26C D31C Y60A, the assay gave 3.79 (2 of 3 replicates; controls 0 of 9).
For D30Y D31N W53V, the assay gave 1.04 (3 of 3 replicates; controls 4 of 9).
For Y32T G100L R101D, the assay gave nd (0 of 3 replicates; controls 2 of 9).
For M34H G100D F106W, the assay gave 4.19 (1 of 3 replicates; controls 1 of 9).
For H35V K65N G100Q, the assay gave nd (0 of 3 replicates; controls 1 of 9).
For G26C I51S Y108S, the assay gave 6.22 (1 of 3 replicates; controls 3 of 9).
For H35A S57T S63F, the assay gave 4.33 (1 of 3 replicates; controls 2 of 9).
For G50T I51W Y108G, the assay gave 4.66 (3 of 3 replicates; controls 7 of 9).
For F27C D31K G100S, the assay gave 4.79 (1 of 3 replicates; controls 1 of 9).
For Y32A H35E G104L, the assay gave 4.58 (3 of 3 replicates; controls 7 of 9).
For I51F G59Y S63G, the assay gave nd (0 of 3 replicates; controls 0 of 9).
For I58Q V99Q Y108R, the assay gave nd (0 of 3 replicates; controls 5 of 9).
For M34V I58E Y60T, the assay gave 3.28 (1 of 3 replicates; controls 0 of 9).
For I51K G59P F106S, the assay gave nd (0 of 3 replicates; controls 0 of 9).
For D31S S52V S55V, the assay gave 2.71 (1 of 3 replicates; controls 0 of 9).
For I51E W53S, the assay gave 4.94 (2 of 3 replicates; controls 3 of 9).
For D31E H35M I51V, the assay gave nd (0 of 3 replicates; controls 1 of 9).
For T28S A61T D62I, the assay gave nd (0 of 3 replicates; controls 0 of 9).
For T28A H35E R101W, the assay gave 4.46 (1 of 3 replicates; controls 4 of 9).
For I51F G56V R101T, the assay gave 5.36 (1 of 3 replicates; controls 1 of 9).
For V99D R101T G102F, the assay gave 2.92 (1 of 3 replicates; controls 2 of 9).
For D31M M34A W53I, the assay gave nd (0 of 3 replicates; controls 1 of 9).
For I51G N54Q S55H, the assay gave 4.45 (2 of 3 replicates; controls 0 of 9).
For D31S S57Y Y60L, the assay gave 5.48 (1 of 3 replicates; controls 0 of 9).
For G100T R101W D107S, the assay gave 5.92 (1 of 3 replicates; controls 1 of 9).
For S63D K65F D107H, the assay gave nd (0 of 3 replicates; controls 0 of 9).
For G26Y D30L V64L, the assay gave nd (0 of 3 replicates; controls 2 of 9).

Excerpt, the final 6 entries:

{"changes": "D31M M34A W53I", "mean log10 Kd (nM)": "nd", "detected": "0/3", "signal with controls": "1/9"}
{"changes": "I51G N54Q S55H", "mean log10 Kd (nM)": "4.45", "detected": "2/3", "signal with controls": "0/9"}
{"changes": "D31S S57Y Y60L", "mean log10 Kd (nM)": "5.48", "detected": "1/3", "signal with controls": "0/9"}
{"changes": "G100T R101W D107S", "mean log10 Kd (nM)": "5.92", "detected": "1/3", "signal with controls": "1/9"}
{"changes": "S63D K65F D107H", "mean log10 Kd (nM)": "nd", "detected": "0/3", "signal with controls": "0/9"}
{"changes": "G26Y D30L V64L", "mean log10 Kd (nM)": "nd", "detected": "0/3", "signal with controls": "2/9"}

Data: MIT Lincoln Laboratory AlphaSeq set, Engelhart et al. 2022, doi:10.1038/s41597-022-01779-4, as distributed in FLAb.